From patent publication US7910621B2, “Small molecule antagonists of XIAP family proteins” (The Regents of the University of Michigan, priority 2004, dated 2011)

Chains of the proteins cited; added tags and fusions are not shown. Residues count along the entry.
UniProt P98170, 241-356 limits assumed: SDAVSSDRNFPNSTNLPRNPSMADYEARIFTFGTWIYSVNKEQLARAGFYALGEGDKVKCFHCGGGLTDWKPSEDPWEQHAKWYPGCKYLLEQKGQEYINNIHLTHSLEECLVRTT

Target: XIAP BIR3 protein of human XIAP (residues 241-356) (Homo sapiens, UniProt P98170)
Assay: Fluorescence polarization competitive binding assay (SM7F tracer)

Cc1ccc(NC(=O)c2cccc(CCC3=C(O)C(=O)C=C(O)C3=O)c2)cc1 [CJ-305]
times more potent than SMXI-56 (binding to XIAP): 5 times | times more potent than the natural Smac AVPI peptide (binding to XIAP): approximately 2 times | IC50 (read-out: IC50 value to XIAP in the competitive binding assay, new analogs of SMXI-56 (FIG. 15)): 1 µM
